Earlier results, collected in PMC5771238 (Neuropharmacology, 2017).

Biological target: CB1 receptor
Conditions: cited from earlier work

## O=C(Nc1ccc(Cl)cc1)Nc1cccc(-c2cccc(N3CCCC3)n2)c1 [PSNCBAM-1, 1-(4-chlorophenyl)-3-{3-[6-(pyrrolidin-1-yl)pyridin-2-yl]phenyl}urea]
At 200 nM CP55,940, ref Horswill et al., 2007
  IC50: 42.1 nM
Ref Baillie et al., 2013
  IC50: 2.72 nM

Where two headings read alike, the source gives them in different places.
